Experimental findings from patent US7670613B2, “Androgen modulators” (Pfizer Inc., priority 2004, dated 2010) are described below.

By UniProt entry, the sequences of proteins in these tests, tags left out.
UniProt P10275, whole entry Q868H: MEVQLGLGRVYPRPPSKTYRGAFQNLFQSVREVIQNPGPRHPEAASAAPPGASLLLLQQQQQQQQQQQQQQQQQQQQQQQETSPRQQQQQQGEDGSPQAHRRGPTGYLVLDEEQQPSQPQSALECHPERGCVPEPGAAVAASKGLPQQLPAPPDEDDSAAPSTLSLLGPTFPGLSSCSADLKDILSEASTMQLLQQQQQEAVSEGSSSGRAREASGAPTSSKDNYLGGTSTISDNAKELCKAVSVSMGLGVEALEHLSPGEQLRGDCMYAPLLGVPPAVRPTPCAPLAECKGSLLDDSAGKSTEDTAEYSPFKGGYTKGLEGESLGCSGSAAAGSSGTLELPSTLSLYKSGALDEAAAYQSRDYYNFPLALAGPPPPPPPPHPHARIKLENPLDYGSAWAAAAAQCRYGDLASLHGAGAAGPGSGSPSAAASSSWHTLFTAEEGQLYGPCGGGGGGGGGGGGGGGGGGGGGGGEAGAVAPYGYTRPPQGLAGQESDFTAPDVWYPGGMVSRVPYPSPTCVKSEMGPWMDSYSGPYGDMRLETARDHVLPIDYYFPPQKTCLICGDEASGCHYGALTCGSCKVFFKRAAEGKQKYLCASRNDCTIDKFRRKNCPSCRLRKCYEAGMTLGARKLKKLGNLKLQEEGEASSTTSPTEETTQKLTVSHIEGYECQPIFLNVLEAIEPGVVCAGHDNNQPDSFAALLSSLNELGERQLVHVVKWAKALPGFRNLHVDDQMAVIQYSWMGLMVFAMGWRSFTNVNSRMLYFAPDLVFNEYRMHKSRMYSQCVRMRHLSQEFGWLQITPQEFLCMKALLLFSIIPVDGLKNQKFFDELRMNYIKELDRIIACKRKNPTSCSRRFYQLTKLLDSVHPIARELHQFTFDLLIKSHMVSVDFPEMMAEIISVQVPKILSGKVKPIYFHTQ

One assay has as its target T1, hAR (Homo sapiens, UniProt P10275).
T1 construct: made in house; host or cells: baculovirus/Sf9 insect cells
In words: Competitive binding analysis on baculovirus/Sf9 generated hAR extracts with 3H-DHT tracer. Particulars: hAR extract, 1 nM 3H-DHT, one hour at 4° C.; mean of multiple tests; read-out: AR Binding IC50. As for the experimental part: The description below describes how the assay was carried out.
Competitive binding analysis was performed on baculovirus/Sf9 generated hAR extracts in the presence or absence of different concentrations of test agent and a fixed concentration of ^3H-dihydrotestosterone (^3H-DHT) as tracer. This binding assay method is a modification of a protocol previously described (Liao S., et. al. J. Steroid Biochem. 20:11-17 1984). Briefly, progressively decreasing concentrations of compounds are incubated in the presence of hAR extract (Chang et al. P.N.A.S. Vol. 89, pp. […], 1992), hydroxylapatite, and 1 nM ^3H-DHT for one hour at 4° C. Subsequently, the binding reactions are washed three times to completely remove excess unbound ^3H-DHT. hAR bound ^3H-DHT levels are determined in the presence of compounds (i.e. competitive binding) and compared to levels bound when no competitor is present (i.e. maximum binding). Compound binding affinity to the hAR is expressed as the concentration of compound at which one half of the maximum binding is inhibited.

In a further assay the target is T2, androgen receptor (Homo sapiens, UniProt P10275, Q868H).
T2 construct: a human breast tumor cell line expressing androgen receptor; endogenous in cells; host or cells: MDA-MB453-MMTV clone 54-19 (only the MMTV-luciferase reporter was transfected)
In words: AR antagonist cell assay (MDA-MB453-MMTV clone 54-19, luciferase reporter). The class given is cell-based. Particulars: MDA-MB453-MMTV clone 54-19 cells, 100 pM DHT, 17 hr; mean of multiple tests. As for the experimental part:
The compounds ability to antagonize the effects of androgen on the androgen receptor were determined in a whole cell assay as described immediately below.
Experimental Procedure for AR Antagonist Cell Assay
Cell line: MDA-MB453-MMTV clone 54-19. This cell line is a stable transfected cell line with MDA-MB453 cell background (a human breast tumor cell line expressing androgen receptor). A MMTV minimal promoter containing ARE was first cloned in front of a firefly luciferase reporter gene. Then the cascade was cloned into transfection vector pUV120puro. Electroporation method was used for transfecting MDA-MB-453 cell. Puromycin resistant stable cell line was selected.
Cell Culture Media and Reagents:
Culture medium: DMEM (high glucose, Gibco cat #: 11960-044), 10% FBS, and 1% L-glutamine
Plating medium: DMEM (phenol red free), 10% charcoal treated HyClone serum, 1% L-glutamine
Assay medium: DMEM (phenol red free), 1% charcoal treated HyClone serum, 1% L-glutamine, and 1% penicillin/streptomycin
3× luciferase buffer: 2% beta-mercaptoethanol, 0.6% ATP, 0.0135% luciferine in cell lysis buffer
• 1. […] Add 50 ul/well 3× luciferase buffer, incubate at room temperature for 5 minutes, then count on Luminometer The fold induction over background by 100 pM DHT in the absence of testing compounds is standardized as 100% and experimental result is expressed as percentage of inhibition by testing compounds. […]
A general note: In a reporter assay the amount or activity of a reporter protein is the signal.

On to “1S,5S)-2-Chloro-4-(5-hydroxy-5-methyl-bicyclo[2.2.1]hept-2-yloxy)-benzonitrile [Example 19]”, for which the IC50 stood at 9 nM at hAR and 14 nM on androgen receptor.

The term IC50 denotes the point on the concentration scale where inhibition reaches its midpoint.
